Settings: baboons with induced endometriosis

For CCC1(c2ccc(N)cc2)CCC(=O)NC1=O (centres unmarked) [C14-labelled aminoglutethimide, “D,L”-3-“4-Aminophenyl”-3-ethyl-2,6-piperidinedione[Phenyl-14C“U”]], the “blood levels of radioactivity” value (intra-vaginal doses of 0.3, 0.6 and 0.9 mCi in DMSO/glycerol, systemic blood samples at time intervals) was ≤ 2 c.p.m. per microgram and the “transfer from vagina to endometrial lesions (radioactive counts in lesion biopsies, FIG. 3)” value (intra-vaginal doses of 0.3, 0.6 and 0.9 mCi, biopsies at three hours) was “transfer of aromatase inhibitor from vagina to endometrial lesions”.

Reference: patent US20050049231A1, “Treatment method” (priority 2001, published 2005)
